# Source: ChEMBL document CHEMBL1123455, “Conformational effects on the activity of drugs. 11. Stereostructural models for the direct activation of the alpha- and beta-adrenergic receptor” (J Med Chem, 1986)
# Sequences of proteins named here, by UniProt entry; tags and fusion partners are left off. A change or cut given only in a name is not applied to a line headed by its entry.
# UniProt P08588, whole entry, looked up: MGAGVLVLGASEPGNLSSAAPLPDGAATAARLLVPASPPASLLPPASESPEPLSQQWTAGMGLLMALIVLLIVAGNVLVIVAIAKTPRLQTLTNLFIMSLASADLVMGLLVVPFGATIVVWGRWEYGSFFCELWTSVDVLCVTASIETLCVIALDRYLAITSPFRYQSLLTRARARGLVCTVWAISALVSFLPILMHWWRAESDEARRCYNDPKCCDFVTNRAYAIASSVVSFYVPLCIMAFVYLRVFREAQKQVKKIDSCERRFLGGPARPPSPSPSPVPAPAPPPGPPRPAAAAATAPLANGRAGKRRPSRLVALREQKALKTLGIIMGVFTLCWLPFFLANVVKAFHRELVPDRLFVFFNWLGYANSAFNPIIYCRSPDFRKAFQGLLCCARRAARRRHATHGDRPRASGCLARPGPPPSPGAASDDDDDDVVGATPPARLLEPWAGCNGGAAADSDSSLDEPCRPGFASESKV
# UniProt P13945: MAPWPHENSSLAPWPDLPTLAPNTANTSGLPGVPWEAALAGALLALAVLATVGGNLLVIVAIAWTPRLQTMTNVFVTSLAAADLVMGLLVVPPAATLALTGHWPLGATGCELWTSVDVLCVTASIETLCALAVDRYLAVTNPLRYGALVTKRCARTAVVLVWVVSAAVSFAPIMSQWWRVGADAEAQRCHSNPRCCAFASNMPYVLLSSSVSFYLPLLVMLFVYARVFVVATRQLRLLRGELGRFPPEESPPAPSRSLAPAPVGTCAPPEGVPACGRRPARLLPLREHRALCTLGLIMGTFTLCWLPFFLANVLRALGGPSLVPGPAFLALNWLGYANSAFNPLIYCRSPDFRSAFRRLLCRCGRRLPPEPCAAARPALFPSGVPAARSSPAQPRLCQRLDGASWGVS
# UniProt P15823: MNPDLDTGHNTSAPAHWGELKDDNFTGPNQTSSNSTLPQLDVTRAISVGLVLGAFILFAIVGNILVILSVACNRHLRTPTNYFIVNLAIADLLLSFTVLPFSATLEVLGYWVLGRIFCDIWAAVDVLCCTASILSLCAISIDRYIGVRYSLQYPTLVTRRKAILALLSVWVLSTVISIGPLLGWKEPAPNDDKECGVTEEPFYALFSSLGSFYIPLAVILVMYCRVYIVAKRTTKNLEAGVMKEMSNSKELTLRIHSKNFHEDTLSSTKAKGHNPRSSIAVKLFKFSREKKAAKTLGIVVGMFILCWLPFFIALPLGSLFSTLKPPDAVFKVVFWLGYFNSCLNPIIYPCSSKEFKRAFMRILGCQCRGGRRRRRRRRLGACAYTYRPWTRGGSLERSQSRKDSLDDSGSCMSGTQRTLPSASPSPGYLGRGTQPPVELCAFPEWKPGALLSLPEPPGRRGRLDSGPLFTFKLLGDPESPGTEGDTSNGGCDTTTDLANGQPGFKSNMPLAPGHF
# UniProt P23944: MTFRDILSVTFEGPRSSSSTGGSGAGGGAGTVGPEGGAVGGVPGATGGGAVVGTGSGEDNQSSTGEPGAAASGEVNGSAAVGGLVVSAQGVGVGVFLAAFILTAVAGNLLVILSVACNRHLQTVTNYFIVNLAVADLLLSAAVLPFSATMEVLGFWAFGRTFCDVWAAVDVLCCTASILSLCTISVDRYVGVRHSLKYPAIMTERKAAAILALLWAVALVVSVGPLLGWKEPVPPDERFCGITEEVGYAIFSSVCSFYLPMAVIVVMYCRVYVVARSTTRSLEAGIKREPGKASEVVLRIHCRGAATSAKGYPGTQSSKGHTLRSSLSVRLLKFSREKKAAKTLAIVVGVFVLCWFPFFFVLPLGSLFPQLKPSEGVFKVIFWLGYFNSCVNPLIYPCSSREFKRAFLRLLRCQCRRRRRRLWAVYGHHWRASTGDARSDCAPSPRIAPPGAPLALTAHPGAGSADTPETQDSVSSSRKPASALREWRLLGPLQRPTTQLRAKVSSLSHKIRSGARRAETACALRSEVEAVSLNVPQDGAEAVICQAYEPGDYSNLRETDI
# UniProt P43140: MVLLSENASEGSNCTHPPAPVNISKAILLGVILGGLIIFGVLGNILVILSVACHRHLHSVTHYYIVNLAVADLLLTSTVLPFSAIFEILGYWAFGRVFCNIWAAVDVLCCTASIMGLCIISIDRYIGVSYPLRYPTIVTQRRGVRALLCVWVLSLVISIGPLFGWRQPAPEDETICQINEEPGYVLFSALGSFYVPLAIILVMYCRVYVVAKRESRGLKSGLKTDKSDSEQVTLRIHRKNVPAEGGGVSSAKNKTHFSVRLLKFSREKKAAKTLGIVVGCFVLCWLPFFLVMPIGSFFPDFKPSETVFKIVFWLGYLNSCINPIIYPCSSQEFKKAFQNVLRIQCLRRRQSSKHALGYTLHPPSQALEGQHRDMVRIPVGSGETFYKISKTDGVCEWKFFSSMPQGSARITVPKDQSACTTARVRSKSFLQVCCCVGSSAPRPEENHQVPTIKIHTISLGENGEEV
# UniProt P22086: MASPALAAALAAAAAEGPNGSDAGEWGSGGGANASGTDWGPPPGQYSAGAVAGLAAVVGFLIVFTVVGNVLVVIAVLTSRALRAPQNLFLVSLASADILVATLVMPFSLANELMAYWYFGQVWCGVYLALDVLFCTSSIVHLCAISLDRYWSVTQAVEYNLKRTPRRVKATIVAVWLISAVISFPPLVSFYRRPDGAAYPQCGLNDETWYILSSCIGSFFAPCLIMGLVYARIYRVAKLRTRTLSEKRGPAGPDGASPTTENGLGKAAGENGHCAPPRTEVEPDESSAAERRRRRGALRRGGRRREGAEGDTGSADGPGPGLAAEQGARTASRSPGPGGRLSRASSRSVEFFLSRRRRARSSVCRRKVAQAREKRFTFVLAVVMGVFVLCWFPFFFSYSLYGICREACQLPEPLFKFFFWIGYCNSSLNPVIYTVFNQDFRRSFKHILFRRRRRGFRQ
# UniProt P19328: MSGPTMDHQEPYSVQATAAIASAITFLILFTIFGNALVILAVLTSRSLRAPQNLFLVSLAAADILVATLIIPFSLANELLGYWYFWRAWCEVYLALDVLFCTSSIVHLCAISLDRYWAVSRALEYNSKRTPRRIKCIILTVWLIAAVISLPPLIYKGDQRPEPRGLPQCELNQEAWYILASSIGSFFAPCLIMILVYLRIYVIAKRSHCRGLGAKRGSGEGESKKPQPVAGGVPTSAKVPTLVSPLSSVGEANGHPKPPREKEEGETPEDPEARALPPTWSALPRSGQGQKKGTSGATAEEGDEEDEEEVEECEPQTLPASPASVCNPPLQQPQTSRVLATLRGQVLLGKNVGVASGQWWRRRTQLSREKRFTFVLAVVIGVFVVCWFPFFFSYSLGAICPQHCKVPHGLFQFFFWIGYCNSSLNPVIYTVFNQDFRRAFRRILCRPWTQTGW
# UniProt P22909: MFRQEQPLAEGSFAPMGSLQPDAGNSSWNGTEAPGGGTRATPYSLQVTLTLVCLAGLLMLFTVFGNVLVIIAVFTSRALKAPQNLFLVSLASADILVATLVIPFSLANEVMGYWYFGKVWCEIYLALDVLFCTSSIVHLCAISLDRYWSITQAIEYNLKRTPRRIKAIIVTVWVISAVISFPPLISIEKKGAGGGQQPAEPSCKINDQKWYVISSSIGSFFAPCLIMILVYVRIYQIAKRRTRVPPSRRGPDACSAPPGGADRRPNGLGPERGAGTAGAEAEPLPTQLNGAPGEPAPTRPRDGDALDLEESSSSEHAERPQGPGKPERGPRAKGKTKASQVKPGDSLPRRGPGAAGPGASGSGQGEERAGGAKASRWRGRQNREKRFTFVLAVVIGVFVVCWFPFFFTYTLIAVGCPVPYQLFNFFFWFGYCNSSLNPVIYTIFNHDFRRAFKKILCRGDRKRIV
# What was measured:
# [1] = molecular target: T1, Adrenergic receptor beta (Homo sapiens) (UniProt P08588+P07550+P13945); conditions: Cavia porcellus
# [2] = molecular target: T2, Adrenergic receptor alpha (Rattus norvegicus) (UniProt P15823+P23944+P43140+P22086+P19328+P22909); conditions: Artery
# [3] = molecular target: T2, Adrenergic receptor alpha (Rattus norvegicus); conditions: Vas deferens
# [4] = molecular target: T1, Adrenergic receptor beta (Homo sapiens); conditions: Cavia porcellus; remark: listed apart in the source
SMILES,pD2 [1],pD2 [2],pD2 [3],pD2 [4]
Oc1ccc(C2(O)CCCNC2)cc1O (stereo not drawn),6.75,4.01,4.53,4.2
Oc1ccc(C2CNCCO2)cc1O (stereo not drawn),5.31,5.82,4.75,4.76
